## AlphaSeq binding of Ab-91 heavy chain variants to a spike HR2 peptide

The target is the same throughout: PDVDLGDISGINAS, from the HR2 region of SARS-CoV-2 spike.

Parent: Ab-91, a human scFv built as VL, a (GGGGS)3 linker, VH. Only the CDRs of the heavy chain vary.
VL: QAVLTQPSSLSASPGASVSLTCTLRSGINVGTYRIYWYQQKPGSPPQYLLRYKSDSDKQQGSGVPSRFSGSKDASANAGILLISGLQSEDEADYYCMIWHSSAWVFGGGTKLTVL
VH: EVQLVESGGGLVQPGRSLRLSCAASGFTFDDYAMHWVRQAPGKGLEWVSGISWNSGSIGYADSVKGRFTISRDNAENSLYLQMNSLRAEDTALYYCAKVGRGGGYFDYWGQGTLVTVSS

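Phage display of a naive human antibody library on the peptide gave the parent. In library AAYL51, one, two or three CDR residues were substituted; doubles and triples were drawn at random. The assay is AlphaSeq: two haploid yeast populations carry antibody and antigen on their surface. Mating (16 h, 30 °C) was followed by selection of diploids and sequencing of their barcodes. Each replicate has its own calibration line, from reference interactions of the BCL2 family. There are three technical replicates.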

Changes read parent residue, position, new residue, counted from the first residue of the VH shown. The Kd shown is the geometric mean over detected replicates; a lower Kd is a better binder. A pair that was not seen in any replicate is written "no signal"; this usually means weak binding, but a binder can also be missed. Nonspecific signal, from three strains lacking the peptide, appeared in 21% of pairings of library AAYL51, centred on 34 µM (5% of these signals below 1.8 µM); values are not corrected for it. Also given: how often the same scFv was detected with the empty control strains.

changes	Kd	detected	control signals
S52T+G104Q+Y108P	560 nM	1/3	1/9
D31V+N54F+G104A	no signal	0/3	0/9
I51W+S52N	3.5 µM	1/3	0/9
T28L+I58R+Y108A	9.8 nM	3/3	2/9
D30L+S55R+G104V	no signal	0/3	2/9
D31Y+S57N+G100V	no signal	0/3	0/9
F29D+A33P+Y105L	110 µM	1/3	3/9
T28E+D30E+H35M	9.4 µM	1/3	0/9
T28W+S63W+K65G	100 nM	3/3	5/9
G56K+V99K+G104L	42 µM	1/3	3/9
F27E+A33C	14 µM	1/3	2/9
S52D+W53M+R101K	780 nM	3/3	0/9
F27S+N54K+G102F	520 µM	3/3	3/9
G26P+R101Q+Y105I	no signal	0/3	0/9
T28F+S63R+V64R	330 µM	2/3	1/9
I58A+G59L	4.4 µM	1/3	0/9
W53G+R101Y+G103Y	no signal	0/3	0/9
S55W+G59R+S63M	88 µM	3/3	6/9
F29W+K65G+Y105M	no signal	0/3	0/9
N54F+S57I+I58E	no signal	0/3	1/9
F27M+D30H+S63A	110 nM	3/3	6/9
S52A+Y60K+Y105D	120 µM	3/3	7/9
F29L+H35K+V99E	no signal	0/3	0/9
G56I+V99S+R101K	400 nM	1/3	0/9
F29Y+Y32K+N54A	24 µM	3/3	3/9
N54L+Y60A+G102D	31 µM	2/3	3/9
F27R+N54T+D107I	7.7 µM	1/3	4/9
F27R+A33E+R101H	13 µM	2/3	2/9
I51S+D62P+V64C	no signal	0/3	1/9
H35V+I58Q+F106C	no signal	0/3	1/9
I51A+D62F	no signal	0/3	1/9
G59A+S63D+G103M	no signal	0/3	1/9
G50C+D62F+V64W	68 µM	2/3	5/9
Y32K+Y105K+Y108D	120 µM	1/3	0/9
T28E+I58A+R101S	36 µM	2/3	0/9
D31A+S52E+N54E	36 µM	2/3	5/9
D30P+Y32V+A33I	no signal	0/3	0/9
G26P+M34W+F106T	1.1 mM	1/3	3/9
D31C+V64L+Y105W	970 µM	2/3	4/9
I51Q+I58C+F106D	no signal	0/3	0/9
F29S+N54H+G56Q	430 µM	2/3	2/9
D30G+I58D+G100H	8.3 nM	3/3	6/9
A33H+W53Y+G59E	93 µM	3/3	4/9
D31G+W53P+G100H	130 µM	2/3	4/9
D31L+G56M+G59Y	no signal	0/3	0/9
Y32L+W53I+V99A	13 µM	1/3	2/9
T28W+V64W+G104Y	17 µM	1/3	1/9
D30C+D31N+Y108Q	2.2 nM	3/3	1/9
M34E+H35D+I58T	70 µM	3/3	3/9
D30Q+S57T+F106C	1.2 µM	3/3	6/9
S55P+D62K	35 µM	1/3	1/9
N54D+G59P+A61V	190 µM	3/3	6/9
T28G+A61G+G100E	8.1 µM	3/3	0/9
H35Y+V64K+D107I	43 µM	1/3	1/9
G59T+S63D	40 µM	3/3	5/9
Y32P+S52N+N54F	5.5 µM	1/3	0/9
D30S+M34C	no signal	0/3	0/9
D31M+I51C+G103Q	no signal	0/3	1/9
V64P+G100W	1.0 mM	1/3	2/9
D31K+W53F+G103F	100 µM	1/3	3/9
A33R+R101Q+G102A	no signal	0/3	0/9
T28E+D31E+S52M	13 µM	3/3	5/9
I51S+S57Q	no signal	0/3	1/9
Y32I+I51S+I58Y	no signal	0/3	0/9
S55R+R101H	no signal	0/3	1/9
F27A+M34T+Y108R	17 µM	3/3	6/9
G50Y+S57E+K65E	no signal	0/3	0/9
F29C+G104D+Y105A	9.2 nM	3/3	2/9
W53L+S63Y+V99E	no signal	0/3	0/9
A61Y+V64T+G100W	230 µM	3/3	3/9
A33R+R101F	14 µM	2/3	4/9
Y60W+G102Q+G103P	16 µM	2/3	1/9
D31K+I58L+F106A	3.8 µM	1/3	2/9
G100E+G102S+F106I	86 nM	3/3	2/9
A33E+Y105R	59 µM	2/3	3/9
G26T+F27A+A33L	36 µM	1/3	2/9
G26R+N54G+D62E	no signal	0/3	1/9
F29E+N54Q+S63D	300 µM	2/3	0/9

Extract of 6 entries:

{"changes": "M34E+H35D+I58T", "Kd": "70 µM", "detected": "3/3", "control signals": "3/9"}
{"changes": "G59T+S63D", "Kd": "40 µM", "detected": "3/3", "control signals": "5/9"}
{"changes": "D31A+S52E+N54E", "Kd": "36 µM", "detected": "2/3", "control signals": "5/9"}
{"changes": "F29L+H35K+V99E", "Kd": "no signal", "detected": "0/3", "control signals": "0/9"}
{"changes": "I51Q+I58C+F106D", "Kd": "no signal", "detected": "0/3", "control signals": "0/9"}
{"changes": "G50Y+S57E+K65E", "Kd": "no signal", "detected": "0/3", "control signals": "0/9"}

Values reported by Engelhart et al. 2022, doi:10.1038/s41597-022-01779-4 (FLAb copy).